Assay [1] concerns the target Kappa-type opioid receptor (Cavia porcellus, UniProt P41144). The assay is described as follows: Agonist activity at kappa opioid receptor in guinea pig ileum assessed as inhibition of electric stimulation-induced contraction.
Another assay has as its system Mus musculus. Put plainly: Antinociceptive activity in po dosed mouse by tail flick test. The class given is functional.

Protein sequences, listed by entry. Tags and fused reporters are not part of them. Lines headed by an entry give the natural chain unless they say otherwise; changes in a name come on top.
UniProt P41144: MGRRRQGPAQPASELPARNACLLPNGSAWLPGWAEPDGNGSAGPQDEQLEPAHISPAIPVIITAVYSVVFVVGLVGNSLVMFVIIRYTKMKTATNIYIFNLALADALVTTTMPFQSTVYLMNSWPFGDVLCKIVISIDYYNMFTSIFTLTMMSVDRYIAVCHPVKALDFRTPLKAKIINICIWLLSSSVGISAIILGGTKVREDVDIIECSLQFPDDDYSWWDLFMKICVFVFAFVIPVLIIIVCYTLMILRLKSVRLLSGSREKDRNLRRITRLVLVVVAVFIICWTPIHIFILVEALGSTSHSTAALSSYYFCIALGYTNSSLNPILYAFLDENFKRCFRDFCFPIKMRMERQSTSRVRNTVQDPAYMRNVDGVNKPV

Among the data in ChEMBL document CHEMBL1142487, “Design, synthesis, and structure-activity relationship of novel opioid kappa-agonists” (Bioorg Med Chem, 2008) are IC50 and ED50 values, retold here.

Take `CN(C(=O)Cc1ccc(Cl)c(Cl)c1)C1CCCCC1N1CCCC1` (configuration not stated): the half-maximal inhibitory concentration (IC50) in assay [1] stood at 1.12 nM. This compound yielded an ED50 in the assay on Mus musculus of 5.18 mg/kg.

As a reminder, the IC50 is the point on the concentration scale where inhibition reaches its midpoint. As a reminder, the ED50 is the midpoint of the dose-response relation. A lower ED50 goes with greater potency.
